A selection: hits, their analogues and other compounds. The true share with any hit is near 0.14%.
S-ASM inh – blocks human secretory acid sphingomyelinase; placental ASM, HMU-PC fluorogenic substrate, 60 min; Potency, µM (top dose mostly 57.5 µM), most hits filed as inhibitors; AID 504937; hit rate 0.006% among 340,000
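HMU-PC0 cleavage (9 uM final) by human placental ASM, 60 min at 37 °C following 10 min compound exposure at RT; stopped at pH 10, fluorescence Ex 386/Em 447 nm.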
miR-21 reporter – raises the signal of a miR-21 reporter; HeLa miR-21 FLuc reporter, luciferase, 48 h; Potency, µM (top dose mostly 38.3 µM); AID 2288; 340,000 tested, under 10 active; active = well fitted rising curve with a large enough effect; inconclusive = small, poorly fitted or top-dose-only effect; inactive = no such curve, though single readings can be large or run the other way;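 note: miR-21 action dims this reporter so a rising signal means less miR-21 action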
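HeLa cells stably expressing CMV-driven firefly luciferase with a downstream miR-21 binding sequence, endogenously expressing miR-21, were treated with titrations (up to about 40uM final) for 48 hours at 37 degree Celsius. Luciferase luminescence was read after lysis.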
PI4K2A inh – PI4K2A (human) kinase inhibition | purified PI4K2A, ADP-Glo luminescence, 1 h; hits give low values | Q9BTU6 | activity change, negative = inhibition, % at 76.9 µM | hit rate 0.13% among 420,000; in the data active = activity change below about -50%; inconclusive = mostly about -30% to -49%
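ADP-Glo luminescence measured ADP generated by PI4K2A enzyme (4 ug/mL before mixing) with 1.2 mM PI substrate (pre-mix) and 300 microM ATP (pre-mix). Tris pH7.5 buffer with MgCl2, Triton X-100; 1 h reaction at ambient temperature.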
GALK inhibitor – inhibitors of human galactokinase; AID 1868; hit rate 0.007% among 270,000; P51570; Potency, µM (top dose mostly 57.5 µM), usual class: inhibitors; Purified GALK, Kinase-Glo residual ATP luminescence
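5 nM enzyme, 35 uM ATP, 100 uM galactose, 20 mM HEPES pH8.0, 5 mM MgCl2; 1 h RT; residual ATP by Kinase-Glo Plus luminescence, qHTS format.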
Of the large screens only hits and unclear results are named; the others gave an inactive call; ! = repeats disagree. Unless noted, calls follow the shape of the dose curve; as a rule, active = well fitted curve in the direction sought with a large enough effect; inconclusive = small, poorly fitted or top-dose-only effect, or another doubt; inactive = no such curve, though single readings can be large; an effect the other way counts as inactive or inconclusive.

O=Cc1ccc(O)c(O)c1	none
CN(N=O)c1ccc(O)c(O)c1	PI4K2A inh -57.4 (no result: S-ASM inh, miR-21 reporter, GALK inhibitor)
NC(=O)CI	PI4K2A inh -54.3 (no result: S-ASM inh, miR-21 reporter, GALK inhibitor)
CCOc1ccc(-n2c(/C=C/c3ccccc3)nc3ccccc3c2=O)cc1	none (no result: S-ASM inh, GALK inhibitor)
CCn1nc(/C=C/c2ccccc2)nc2c(=O)n(C)c(=O)nc1-2	PI4K2A inh -69.0
CCn1nc(-c2cccs2)nc2c(=O)n(C)c(=O)nc1-2	PI4K2A inh -60.7, GALK inhibitor 1.26µM
CCC(C)C(C)(COC(N)=O)COC(N)=O (centres undefined)	none (no result: S-ASM inh, miR-21 reporter, GALK inhibitor)
C[C@]12Cc3cn[nH]c3C[C@@H]1CC[C@@H]1[C@@H]2CC[C@@]2(C)[C@H]1CC[C@]2(C)O	none (no result: S-ASM inh, miR-21 reporter, GALK inhibitor)
CC(C)(N)Cc1ccccc1Cl	none (no result: S-ASM inh, miR-21 reporter, GALK inhibitor)
CC(C)N1C(=O)/C(=C/C=C/c2ccco2)C(=O)N(Cc2ccco2)C1=O	S-ASM inh inconclusive, PI4K2A inh -58.8
Cc1cc(C)cc(N2C(=O)NC(=O)/C(=C\c3cccn3-c3ccc(Cl)cc3)C2=O)c1	PI4K2A inh -50.1
Cc1cc(C)cc(N2C(=O)NC(=O)/C(=C\c3cccn3-c3ccccc3)C2=O)c1	none
CN1C(=O)/C(=C/c2cccn2-c2ccc3ccccc3c2)C(=O)NC1=S	PI4K2A inh -61.3
NCCc1cc(O)c(O)cc1O	PI4K2A inh inconclusive (no result: miR-21 reporter, GALK inhibitor)
NC(Cc1cc(O)c(O)cc1O)C(=O)O (centres undefined)	PI4K2A inh -80.2 (no result: S-ASM inh, miR-21 reporter, GALK inhibitor)
Cc1cc(O)c2c(c1)C(=O)C13C(=C2O)C(=O)[C@H]2[C@@H](O)[C@@H]1[C@H]1[C@H](O)[C@@H]3C(=O)C3=C(O)c4c(O)cc(C)cc4C(=O)C312 (some centres undefined)	PI4K2A inh -75.3 (no result: miR-21 reporter, GALK inhibitor)
CC(C(O)c1ccccc1)N(C)C/C=C/c1ccccc1 (centres undefined)	none (no result: S-ASM inh, miR-21 reporter, GALK inhibitor)
O=c1[nH]cc(N(CCCl)CCCl)c(=O)[nH]1	PI4K2A inh -67.3 (no result: S-ASM inh, miR-21 reporter, GALK inhibitor)
CC(Cc1ccccc1)NCCCCl (centres undefined)	none (no result: S-ASM inh, miR-21 reporter, GALK inhibitor)
COc1cc(OC)c(OC)cc1/C=C1/C(=O)NC(=O)N(Cc2ccccc2)C1=O	PI4K2A inh -52.7
COc1cc(OC)c(OC)cc1/C=C1\C(=O)NC(=O)N(Cc2ccccc2)C1=O	none
Fc1cc(Br)ccc1CBr	none (no result: S-ASM inh, miR-21 reporter, GALK inhibitor)
CN(C)[C@@H]1C(=O)C(C(N)=O)=C(O)[C@@]2(O)C(=O)C3=C(O)c4c(O)cccc4[C@@](C)(O)[C@H]3[C@H](O)[C@@H]12	PI4K2A inh -62.9!
CC(Cc1ccccc1)N(C)Cc1ccco1 (centres undefined)	none (no result: S-ASM inh, miR-21 reporter, GALK inhibitor)

Assay outcomes as filed in PubChem BioAssay.
